System: B16F10 melanoma cells
Experiment: Cell viability (MTT assay)
Format: cell-based, mouse
Experimental: Mouse-derived B16F10 melanoma cells were incubated in the DMEM medium supplemented with 10% (v/v) FBS and 1% streptomycin–penicillin solution at 37 °C and 5% CO2. Sub-culture was conducted by detaching the cells with trypsin-EDTA after reaching 90% confluence.
The effects of LOMIX and each LO compound on cell survival were determined using the MTT assay. B16F10 melanoma cells (100 μL of 1.5 × 10^5 cells/mL) were seeded in a 96-well plate with 100 μL of the testing sample [LOMIX (0–200 μg/mL) or LO (0–50 μM)]. After 2 days, MTT solution (10 μL) was added to each well, and cells were incubated for an additional 3 h in the dark. The reaction was stopped by adding 100 μL of 10% SDS complemented with 0.01 M HCl. Moreover, 5000 cells/well of B16F10 melanoma cells were incubated in 96-well plates to check the cytotoxicity of LOMIX in the presence of α-MSH. The 10 μL of MTT solution was added to the cells incubated with the LOMIX (50 and 100 μg/mL) and α-MSH (100 nM) for 0, 24, and 48 h. Subsequently, the stopping solution (100 μL) (10% SDS solution with 0.01 M HCl) was added after 3 h incubation. The absorbance was measured at 570 nm using Synergy™ HTX (Biotek Instruments Inc., Winooski, VT, USA).

[1–9-NαC]-linusorb B2 [LO2]
cell viability (MTT) (25 μM, B16F10 melanoma cells, 48 h): not altered | cell survival (MTT) (50 μM, B16F10 cells, 48 h): declined | toxicity (12.5 and 25 μM, B16F10 cell lines): without toxicity

— article PMC9820828, “Anti-Melanogenesis Effects of a Cyclic Peptide Derived from Flaxseed via Inhibition of CREB Pathway” (International Journal of Molecular Sciences, 2022)
